Source: ChEMBL document CHEMBL1139297, “Synthesis and stereochemical effects of pyrrolidinyl-acetylenic thieno[3,2-d]pyrimidines as EGFR and ErbB-2 inhibitors” (Bioorg Med Chem Lett, 2009)

The chains behind the UniProt entries cited, without tags or fusion partners.
UniProt P00533, whole entry: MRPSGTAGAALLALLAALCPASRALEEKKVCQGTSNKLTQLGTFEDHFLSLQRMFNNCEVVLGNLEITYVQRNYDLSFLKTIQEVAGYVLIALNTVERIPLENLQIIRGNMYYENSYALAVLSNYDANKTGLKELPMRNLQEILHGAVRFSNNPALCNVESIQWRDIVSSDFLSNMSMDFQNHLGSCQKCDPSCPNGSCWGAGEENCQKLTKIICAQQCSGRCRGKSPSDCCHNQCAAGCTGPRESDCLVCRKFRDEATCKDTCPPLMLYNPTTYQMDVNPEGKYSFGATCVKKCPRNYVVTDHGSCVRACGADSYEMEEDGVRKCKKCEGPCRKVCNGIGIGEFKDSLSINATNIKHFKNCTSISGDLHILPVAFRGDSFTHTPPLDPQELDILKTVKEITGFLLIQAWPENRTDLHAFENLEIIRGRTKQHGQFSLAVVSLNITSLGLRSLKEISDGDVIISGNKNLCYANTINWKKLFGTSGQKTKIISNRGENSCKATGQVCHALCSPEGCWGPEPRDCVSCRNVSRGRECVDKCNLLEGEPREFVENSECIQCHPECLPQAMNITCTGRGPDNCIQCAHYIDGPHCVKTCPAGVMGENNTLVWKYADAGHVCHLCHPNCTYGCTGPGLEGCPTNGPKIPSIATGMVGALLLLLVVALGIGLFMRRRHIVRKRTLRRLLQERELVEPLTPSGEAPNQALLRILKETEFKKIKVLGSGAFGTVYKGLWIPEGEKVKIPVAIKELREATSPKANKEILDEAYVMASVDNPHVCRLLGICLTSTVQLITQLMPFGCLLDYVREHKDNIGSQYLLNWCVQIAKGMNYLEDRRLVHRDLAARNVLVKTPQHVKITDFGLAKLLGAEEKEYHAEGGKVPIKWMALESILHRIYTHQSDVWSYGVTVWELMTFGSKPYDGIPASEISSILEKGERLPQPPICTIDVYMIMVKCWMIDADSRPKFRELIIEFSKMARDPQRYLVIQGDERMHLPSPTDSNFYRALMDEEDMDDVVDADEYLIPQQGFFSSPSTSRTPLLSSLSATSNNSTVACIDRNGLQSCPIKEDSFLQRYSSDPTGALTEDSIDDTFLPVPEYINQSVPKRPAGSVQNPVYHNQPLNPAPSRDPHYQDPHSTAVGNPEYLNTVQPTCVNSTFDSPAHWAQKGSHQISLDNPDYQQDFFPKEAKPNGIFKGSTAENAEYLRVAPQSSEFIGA
UniProt P04626, whole entry: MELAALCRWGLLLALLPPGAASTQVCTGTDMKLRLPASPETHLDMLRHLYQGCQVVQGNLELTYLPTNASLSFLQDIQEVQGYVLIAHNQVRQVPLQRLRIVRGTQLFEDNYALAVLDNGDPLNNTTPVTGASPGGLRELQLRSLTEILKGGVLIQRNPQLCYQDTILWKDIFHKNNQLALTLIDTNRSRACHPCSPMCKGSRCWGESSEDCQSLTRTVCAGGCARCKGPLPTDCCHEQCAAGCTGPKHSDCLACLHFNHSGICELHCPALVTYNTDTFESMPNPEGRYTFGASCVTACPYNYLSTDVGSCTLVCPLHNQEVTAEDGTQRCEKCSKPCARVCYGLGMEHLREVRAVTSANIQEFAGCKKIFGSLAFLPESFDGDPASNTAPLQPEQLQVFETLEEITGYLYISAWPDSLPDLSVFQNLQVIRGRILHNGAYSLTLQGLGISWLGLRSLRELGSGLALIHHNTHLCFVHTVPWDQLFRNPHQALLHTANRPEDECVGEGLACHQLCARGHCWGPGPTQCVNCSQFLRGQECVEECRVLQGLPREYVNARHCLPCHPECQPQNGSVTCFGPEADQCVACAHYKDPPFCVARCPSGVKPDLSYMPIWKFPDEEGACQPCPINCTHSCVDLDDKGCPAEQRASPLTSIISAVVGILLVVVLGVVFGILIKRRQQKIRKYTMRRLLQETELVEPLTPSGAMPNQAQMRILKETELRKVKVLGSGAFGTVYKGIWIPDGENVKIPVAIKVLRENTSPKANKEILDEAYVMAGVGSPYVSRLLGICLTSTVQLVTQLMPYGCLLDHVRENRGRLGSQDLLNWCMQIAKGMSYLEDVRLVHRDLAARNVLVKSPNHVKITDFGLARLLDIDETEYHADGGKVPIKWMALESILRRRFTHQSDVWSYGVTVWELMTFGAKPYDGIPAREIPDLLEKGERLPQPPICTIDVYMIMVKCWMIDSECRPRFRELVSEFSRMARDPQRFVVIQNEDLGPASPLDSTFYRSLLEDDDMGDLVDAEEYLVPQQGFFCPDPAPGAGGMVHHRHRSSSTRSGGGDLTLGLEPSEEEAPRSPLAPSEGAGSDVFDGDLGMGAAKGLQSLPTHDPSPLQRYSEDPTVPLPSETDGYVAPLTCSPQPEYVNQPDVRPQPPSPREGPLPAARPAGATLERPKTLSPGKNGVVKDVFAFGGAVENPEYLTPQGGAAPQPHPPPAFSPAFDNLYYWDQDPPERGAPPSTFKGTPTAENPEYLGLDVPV

How the values were obtained:
[1] = target: Epidermal growth factor receptor (Homo sapiens, UniProt P00533)
[2] = target: T1, Receptor tyrosine-protein kinase erbB-2 (Homo sapiens, UniProt P04626); assay: Inhibition of ERBb2 by DELFIA assay
[3] = target: T1, Receptor tyrosine-protein kinase erbB-2
[4] = test system: HN5; assay: cells; conditions: Homo sapiens, HN5, 72 h

Row | IC50 [1] | EC50 [2] | Compound | other results
1 | 79 nM | – | O=C(O[C@@H]1CN[C@H](C#Cc2cc3ncnc(Nc4ccc(OCc5cccc(F)c5)c(Cl)c4)c3s2)C1)N1CCOCC1 | –
2 | 40 nM | – | O=C(O[C@@H]1CN[C@@H](C#Cc2cc3ncnc(Nc4ccc(OCc5cccc(F)c5)c(Cl)c4)c3s2)C1)N1CCOCC1 | –
3 | 50 nM | – | O=C(O[C@H]1CN[C@@H](C#Cc2cc3ncnc(Nc4ccc(OCc5cccc(F)c5)c(Cl)c4)c3s2)C1)N1CCOCC1 | –
4 | – | 50 nM | CCNC(=O)O[C@@H]1CN[C@@H](C#Cc2cc3ncnc(Nc4ccc(OCc5cccc(F)c5)c(Cl)c4)c3s2)C1 | –
5 | – | 10 nM | CCNC(=O)O[C@H]1CN[C@@H](C#Cc2cc3ncnc(Nc4ccc(OCc5cccc(F)c5)c(Cl)c4)c3s2)C1 | IC50 [3]: 20 nM
6 | – | 130 nM | CCNC(=O)O[C@@H]1CN[C@H](C#Cc2cc3ncnc(Nc4ccc(OCc5cccc(F)c5)c(Cl)c4)c3s2)C1 | IC50 [3]: 63 nM
7 | – | – | CCNC(=O)O[C@H]1CN[C@H](C#Cc2cc3ncnc(Nc4ccc(OCc5cccc(F)c5)c(Cl)c4)c3s2)C1 [GSK-192082A] | IC50 [2]: 10 nM
8 | – | – | O=C(O[C@H]1CN[C@H](C#Cc2cc3ncnc(Nc4ccc(OCc5cccc(F)c5)c(Cl)c4)c3s2)C1)N1CCOCC1 [GW869810X] | EC50 [4]: 160 nM
